# Laboratory results as given in patent US7803377B2, “Anti-DLL4 antibodies and methods using same” (Genentech, Inc., priority 2006, dated 2010).
# Amino acid sequences for entries named in this document (tags omitted). Residues count along the entry.
# UniProt Q9NR61, 27-404: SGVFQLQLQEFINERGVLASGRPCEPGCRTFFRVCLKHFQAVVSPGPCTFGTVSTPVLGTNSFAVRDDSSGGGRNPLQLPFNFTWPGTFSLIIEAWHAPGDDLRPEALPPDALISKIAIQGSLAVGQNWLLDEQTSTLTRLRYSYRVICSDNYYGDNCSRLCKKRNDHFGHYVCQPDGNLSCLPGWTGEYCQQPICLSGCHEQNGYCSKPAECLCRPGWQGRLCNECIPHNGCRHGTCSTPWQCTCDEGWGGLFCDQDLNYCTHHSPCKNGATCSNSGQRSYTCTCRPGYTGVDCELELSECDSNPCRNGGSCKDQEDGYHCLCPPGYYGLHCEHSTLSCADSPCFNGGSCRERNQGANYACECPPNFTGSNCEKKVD
# Legend:
# human Delta4 (ECD5.5) = molecular target: T1, human Delta4 (ECD5.5) (Homo sapiens, UniProt Q9NR61); assay: Surface plasmon resonance (BIAcore-3000) binding affinity and kinetics; conditions: human DLL4-His; Kd calculated as koff/kon
# T1 construct: DLL4-His (C-terminal His-tagged human DLL4, amino acid 1-404); His (C)
# Protocol: To determine the binding affinity of the anti-DLL4 Mabs, surface plasmon resonance (SRP) measurement with a BIAcore™-3000 was used (BIAcore, Inc., Piscataway, N.J.). Briefly, carboxymethylated dextran biosensor chips (CM5, BIAcore Inc.) were activated with N-ethyl-N′-(3-dimethylaminopropyl)-carbodiimide hydrochloride (EDC) and N-hydroxysuccinimide (NHS) according to the supplier's instructions. Anti-DLL4 antibody was diluted with 10 mM sodium acetate, pH 4.8, into 5 μg/ml before injection at a flow rate of 5 μl/minute to achieve approximately 500 response units (RU) of coupled antibody. Next, IM ethanolamine was injected to block unreacted groups. For kinetics measurements, two-fold serial dilutions of either human or murine DLL4-His molecules (0.7 nM to 500 nM) were injected in PBS with 0.05% Tween™ 20 at 25° C. at a flow rate of 25 μl/min. Association rates (kon) and dissociation rates (koff) were calculated using a simple one-to-one Langmuir binding model (BIAcore Evaluation Software version 3.2). The equilibrium dissociation constant (Kd) was calculated as the ratio koff/kon.
# DLL4 = DLL4 (Homo sapiens, UniProt Q9NR61); assay: Notch ligand: Notch blocking ELISA (DLL4-AP / DLL4-His binding to coated rNotch1); set-up: amino acid 1-404 of DLL4 fused to human placenta alkaline phosphatase; made in house; host or cells: 293 cells, conditioned medium (DLL4-AP); conditions: DLL4-AP conditioned medium; rrNotch1-Fc coated at 0.5 μg/ml; read-out: calculated IC50, blocking the binding of DLL4-AP to coated rNotch1
# Protocol: Notch ligand: Notch blocking ELISA. 96-well microtiter plates were coated with recombinant rat Notch1-Fc (rrNotch1-Fc, R&D Systems) at 0.5 μg/ml. Conditioned medium containing DLL4-AP (amino acid 1-404 of DLL4 fused to human placenta alkaline phosphatase) was used in the assay. To prepare conditioned medium, 293 cells were transiently transfected with plasmid expressing DLL4-AP with Fugen6 reagent (Roche Molecular Biochemicals). Five days posttransfection, the conditioned medium was harvested, filtered and stored at 4° C. Purified antibodies titrated from 0.15 to 25 μg/ml were preincubated for 1 hr at room temperature with DLL4-AP conditioned medium at a dilution that conferred 50% maximally achievable binding to coated rrNotch1-Fc. The antibody/DLL4-AP mixture was then added to rrNotch1-Fc coated plate for 1 hr at room temperature, after which plates were washed several times in PBS. The bound DLL4-AP was detected using 1-Step PNPP (Pierce) as substrate and OD 405 nm absorbance measurement. Identical assay was performed with DLL1-AP (human DLL1, amino acid 1-445). […] The bound His-tagged ligands was detected with mouse anti-His mAb (1 μg/ml, Roche Molecular Biochemicals), biotinylated goat-anti-mouse (Jackson ImmunoResearch) and Streptavidin-AP (Jackson ImmunoResearch).
substance,measurement,setting,value
"YW26.82: affinity matured anti-DLL4 monoclonal antibody; HVR-H1/H2/H3 SEQ ID NO:1, 8, 9; HVR-L1/L2/L3 SEQ ID NO:10, 11, 18",pKd,human Delta4 (ECD5.5),9.82
same,pIC50,DLL4,~7.92

# pIC50, pKd: −log10 of the molar value.
